## Binding of CDR-mutated scFvs to a peptide of the spike HR2 region

Data: MIT Lincoln Laboratory AlphaSeq set, Engelhart et al. 2022, doi:10.1038/s41597-022-01779-4, as distributed in FLAb.

All variants were tested on one target, the spike HR2 peptide PDVDLGDISGINAS (SARS-CoV-2).

Each scFv is VH, a (GGGGS)3 linker, VL, as in the parent Ab-14, and differs from it in the CDRs of the heavy chain only.
VH: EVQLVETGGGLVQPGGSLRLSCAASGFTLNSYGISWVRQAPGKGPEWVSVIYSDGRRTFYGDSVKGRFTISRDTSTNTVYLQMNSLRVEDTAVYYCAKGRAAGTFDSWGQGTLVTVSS
VL: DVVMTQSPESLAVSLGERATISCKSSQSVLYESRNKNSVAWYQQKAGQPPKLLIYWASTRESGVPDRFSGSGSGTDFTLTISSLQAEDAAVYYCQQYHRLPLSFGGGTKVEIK

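The parent was found by panning a naive human phage display library on the peptide. The library (AAYL49) carries one to three amino acid substitutions per variant, with no insertions or deletions. Affinity was read by AlphaSeq, a pooled yeast mating assay with surface-displayed partners. Mating (16 h, 30 °C) was followed by selection of diploids and sequencing of their barcodes. Each replicate has its own calibration line, from reference interactions of the BCL2 family. Each pool was mated in three replicate cultures.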

Variants are written as CDR1, CDR2 and CDR3 of the heavy chain (limits as in the source). Parent: GFTLNSYGIS, VIYSDGRRTFYGDSVK, GRAAGTFDS.
The read-out is the apparent dissociation constant on a log10 scale (nM): the lower, the stronger.
The mean shown is taken over the replicates in which the pair was detected.
"ND" means that the variant was in the library but no mating with the target was seen in that replicate; the authors take this as a sign of poor binding, and no number exists.
The list is sorted by this average, lowest first, undetected variants last.
For reference, the parent read 0.65 as the reference entry and 4.11 (one replicate of three) as a member of this library.
Nonspecific signal, from three strains lacking the peptide, appeared in 15% of pairings of library AAYL49, centred on 4.06 (5% of these signals below 2.83); values are not corrected for it. The control count says in how many pairings with the empty strains this scFv gave a signal, with their mean in brackets.

CDR-H1	CDR-H2	CDR-H3	log10 Kd (nM) by replicate	mean log10 Kd (nM)	signal with controls
GFTLNSYGIS	VIYSDGRRTFYGDSVK	GVIAGTFIS	0.29 0.52 0.15	0.32	1/9 (3.60)
GFPLNSYGIS	VIYSDGRRTFYGDSVK	GRAANTFPS	0.56 0.70 0.85	0.71	4/9 (4.15)
GFTLNTYGIS	VIYSDGRRTFYGDSVV	GRNAGTFDS	0.65 0.86 0.75	0.76	0/9
GFGLNSYGIS	VIYSDGRRTFYGDSAK	GRAAGTFDS	1.94 1.91 1.95	1.93	1/9 (4.08)
GFTLNSYGIS	VIYSDDRRTFYGDSVW	GRAAGTFDS	2.36 ND ND	2.36	0/9
GFTLNSYGIS	VIYSDGERTFYGDSVL	GRAAGMFDS	2.39 2.56 2.83	2.59	3/9 (4.68)
GFTLNSYGIS	VIYSDGRRTFYGDMVK	GVAAGTFSS	2.82 3.05 2.63	2.83	2/9 (4.71)
GFTLASYGIS	VIYSDGRRTLYGDSVK	GRAAGTFDS	3.00 2.97 2.89	2.95	0/9
GSTLNSYGIS	VIYSDGRRTFYGDPVK	GRAAGTFDE	3.52 2.63 2.72	2.96	0/9
GFCLNSYGAS	VIYSDGRRTFYGDSVK	TRAAGTFDS	ND ND 3.30	3.30	1/9 (4.19)
DFTLNSYGFS	VIYSDGRRTFYGDSVK	GRAAGTFDS	3.51 ND ND	3.51	1/9 (4.55)
HFTLNSYGIS	VIYSDGPRTFYGDSVK	GRAAGTFDS	ND 3.69 4.02	3.85	4/9 (3.99)
FFTLNSPGIS	VIYSDGRRTFYGCSVK	GRAAGTFDS	ND 3.95 ND	3.95	0/9
GLTLNFYGIS	VIYSDGPRTFYGDSVK	GRAAGTFDS	3.65 4.01 4.53	4.06	2/9 (4.13)
GFTLNSYGIS	TIYSIGRRTFYGDSVK	GRAAGTFDS	3.86 ND 5.45	4.65	5/9 (3.23)
GFTLDSYGIS	VEYSDGRRTFYGLSVK	GRAAGTFDS	5.23 4.37 ND	4.80	1/9 (4.61)
GFTLDSYGIS	VIYSDGRRTGYGDSEK	GRAAGTFDS	ND ND 4.87	4.87	3/9 (4.02)
GFTLDSYGIS	AIYSDGRRTFYGDSVK	GRAAQTFDS	4.96 ND 4.88	4.92	2/9 (4.12)
GVTLNSYGIS	VAYSDGRVTFYGDSVK	GRAAGTFDS	5.54 3.65 5.86	5.01	5/9 (4.28)
GHTLNSYGIS	VIYSDGRRTFYGDYVK	GRAAGTFDI	5.32 ND ND	5.32	4/9 (4.41)
GFTLDSYGIS	VIYSDQRRTFYGDSVK	GRAAGTFLS	ND ND 5.47	5.47	2/9 (4.05)
GFWLNSYGIS	VIYSDGRRTFYVDSVK	GRAWGTFDS	6.47 4.48 ND	5.48	5/9 (4.44)
GFTLNCYGIM	VIYSDGRRTFYGDRVK	GRAAGTFDS	5.61 ND ND	5.61	3/9 (4.60)
GFTLNSAGIS	DITSDGRRTFYGDSVK	GRAAGTFDS	ND ND ND	ND	4/9 (3.94)
GQTLNSYGII	VIYSDGRRTYYGDSVK	GRAAGTFDS	ND ND ND	ND	0/9
DFTLNSYGIS	VFYSDGRYTFYGDSVK	GRAAGTFDS	ND ND ND	ND	1/9 (4.52)
GFTLNSYGIS	VIYSHGRRTFYGDSVK	GRAVGWFDS	ND ND ND	ND	0/9
GFTLNSYGIS	VIYSDGRYTFYEDSVK	KRAAGTFDS	ND ND ND	ND	0/9
GFTLNFYGIS	VIYSDGRRTFIGPSVK	GRAAGTFDS	ND ND ND	ND	0/9
GFTLNSYGIS	VIASDGRRTFYGDYVR	GRAAGTFDS	ND ND ND	ND	0/9
GFTLNSYGIS	HIYSDGRRTFYGDSVK	GTAAGTFWS	ND ND ND	ND	0/9
GFTLNSYGIS	VIQSDGRRTFKGDSRK	GRAAGTFDS	ND ND ND	ND	1/9 (2.59)
GFTLNSNGIS	VIYSDGDRTFSGDSVK	GRAAGTFDS	ND ND ND	ND	2/9 (3.38)
GFTLNEYGIS	HIYSDGRRTFYGDSVK	GRGAGTFDS	ND ND ND	ND	1/9 (4.24)
GFRLNSYGIS	VIYSDGRRTFYGDSVK	GRMANTFDS	ND ND ND	ND	2/9 (3.97)
GFTLNSYHIS	VIYSPGRRTFYGDSVK	GRAARTFDS	ND ND ND	ND	2/9 (3.90)
GFTLNSYGIN	VIYSDGRRTFYGDSVK	GDAAGTFDY	ND ND ND	ND	0/9
GDTLNSYGIS	VIPSDGRRTFYGDSVE	GRAAGTFDS	ND ND ND	ND	0/9
RFTLNSYGIS	VIYSDGRRWFYGDSVK	LRAAGTFDS	ND ND ND	ND	0/9
GFTLNSYGIS	VIYSDGRRIFGMDSVK	GRAAGTFDS	ND ND ND	ND	0/9
GFTLNSYGES	VIYSDGRRTFYGDLVK	GRAAGTFDS	ND ND ND	ND	0/9
GFTLNSYGIS	VIYSDGNRNFYGDEVK	GRAAGTFDS	ND ND ND	ND	0/9
GFTRNSYGIS	VIYSDARRTWYGDSVK	GRAAGTFDS	ND ND ND	ND	0/9
GFTLNRYGIS	VIYSDGWRTFYGDSVK	GRAAGCFDS	ND ND ND	ND	0/9
GFTENSYGIS	PIYSDGRRFFYGDSVK	GRAAGTFDS	ND ND ND	ND	0/9
GETLNSYGIS	VIYSDGRRTFYGDSLK	GRAAGTFDE	ND ND ND	ND	1/9 (4.21)
GNTLNSYGIS	VIYSDGRRTFAGDSVK	GRAAGTFLS	ND ND ND	ND	1/9 (3.73)
GFTLNSDGIS	VIYSDGRRTFYGDSVK	NRAAGTFDS	ND ND ND	ND	1/9 (4.40)
GFQLNSYFDS	VIYSDGRRTFYGDSVK	GRAAGTFDS	ND ND ND	ND	2/9 (4.42)
GFTLNSCGIS	VIYSDGRRTFYGDMVK	HRAAGTFDS	ND ND ND	ND	1/9 (3.76)
GFTLWSYGIS	VIYSDVRRTFYGMSVK	GRAAGTFDS	ND ND ND	ND	0/9
GFTLNSYFIS	VIYSDGRRTFYGDAVK	GIAAGTFDS	ND ND ND	ND	1/9 (2.70)

Excerpt, the final 7 entries:

| CDR-H1 | CDR-H2 | CDR-H3 | log10 Kd (nM) by replicate | mean log10 Kd (nM) | signal with controls |
|---|---|---|---|---|---|
| GETLNSYGIS | VIYSDGRRTFYGDSLK | GRAAGTFDE | ND ND ND | ND | 1/9 (4.21) |
| GNTLNSYGIS | VIYSDGRRTFAGDSVK | GRAAGTFLS | ND ND ND | ND | 1/9 (3.73) |
| GFTLNSDGIS | VIYSDGRRTFYGDSVK | NRAAGTFDS | ND ND ND | ND | 1/9 (4.40) |
| GFQLNSYFDS | VIYSDGRRTFYGDSVK | GRAAGTFDS | ND ND ND | ND | 2/9 (4.42) |
| GFTLNSCGIS | VIYSDGRRTFYGDMVK | HRAAGTFDS | ND ND ND | ND | 1/9 (3.76) |
| GFTLWSYGIS | VIYSDVRRTFYGMSVK | GRAAGTFDS | ND ND ND | ND | 0/9 |
| GFTLNSYFIS | VIYSDGRRTFYGDAVK | GIAAGTFDS | ND ND ND | ND | 1/9 (2.70) |